The values that follow come from patent US12018016B2, “Aryl sulfonyl (hydroxy) piperidines as CCR6 inhibitors” (CHEMOCENTRYX, INC., priority 2021, dated 2024).

The chains behind the UniProt entries cited, without tags or fusion partners.
UniProt P51684, whole entry: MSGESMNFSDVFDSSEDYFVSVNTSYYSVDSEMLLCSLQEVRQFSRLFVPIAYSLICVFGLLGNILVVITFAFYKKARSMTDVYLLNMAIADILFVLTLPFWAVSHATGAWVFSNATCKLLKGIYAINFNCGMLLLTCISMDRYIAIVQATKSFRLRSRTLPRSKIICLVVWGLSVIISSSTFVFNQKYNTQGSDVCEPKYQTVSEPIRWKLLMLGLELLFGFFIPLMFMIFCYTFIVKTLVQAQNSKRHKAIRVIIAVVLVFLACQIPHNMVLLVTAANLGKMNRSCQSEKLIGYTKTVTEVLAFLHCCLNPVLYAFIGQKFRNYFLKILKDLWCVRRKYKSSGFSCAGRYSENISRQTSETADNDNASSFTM

The structures appear in SMILES notation.

This assay deals with human CCR6 (Homo sapiens, UniProt P51684). The assay is described as follows: Migration assay (chemotaxis, ChemoTX). Particulars: read-out: Potency (IC50 value in the migration assay); hCCR6-transfected Ba/F3 cells in human serum, migration to recombinant human CCL20 10 nM, 37° C. 45 minutes. From the text: A chemotaxis assay can be used to determine the efficacy of potential receptor antagonists at blocking the migration mediated through chemokine receptors, such as CCR6. This assay is routinely performed using the ChemoTX® microchamber system with a 5-μm pore-sized polycarbonate membrane. Chemokine receptor-expressing cells are required for such an assay. In this case, Ba/F3 cells (Palacios et al., Nature, 309:126, 1984) transfected with the gene for human CCR6 under control of the CMV promotor were used. To begin such an assay, hCCR6-transfected Ba/F3 cells are first grown for 24 hr in medium supplemented with sodium butyrate, which increases CCR6 transcription via the CMV promotor. The prepared Ba/F3 cells, are collected by centrifugation at 400×g at room temperature, then suspended at 4 million/ml in human serum. The compound being tested is serially diluted from a maximum final concentration of 1 μM (or an equivalent volume of its solvent (DMSO)) and is then added to the cell/serum mixture. Separately, recombinant human CCL20 (MIP-3α/LARC) at its EC50 concentration (10 nM) is placed in the lower wells of the ChemoTX® plate. The 5-μm (pore size) polycarbonate membrane is placed onto the plate, and 20 μL of the cell/compound mixture is transferred onto each well of the membrane. The plates are incubated at 37° C. for 45 minutes, after which the polycarbonate membranes are removed and 5 μl of the DNA-intercalating dye CyQUANT (Invitrogen, Carlsbad, CA) is added to the lower wells. The amount of fluorescence, corresponding to the number of migrated cells, is measured using a Spectrafluor Plus plate reader (TECAN, San Jose, CA).
As for `NC1CCN(c2cc(-c3ccc(S(=O)(=O)N4CC[C@@H](Nc5ccc(C(F)(F)F)cn5)[C@@H](O)C4)cc3)ccn2)CC1`, the IC50 is < 1 nM.

`O=C1Nc2ncc(-c3ccc(S(=O)(=O)N4CC[C@@H](Nc5ccc(C(F)(F)F)cn5)[C@@H](O)C4)cc3)cc2C12CCOCC2`: the IC50 was < 1 nM.

Turning to `N#Cc1n[nH]c2ncc(-c3ccc(S(=O)(=O)N4CC[C@@H](Nc5ccc(C(F)(F)F)cn5)[C@@H](O)C4)cc3)cc12` [Compound 193], the IC50 was < 1 nM.
